Legend:
[1] = tested on: early-stage breast cancer with low levels of HER2; details: added to standard adjuvant chemotherapy; cited from earlier work
[2] = tested on: HER2 low-expressing (IHC 1+/2+) breast cancer; assay: Randomized Phase IIb trial, disease-free survival and recurrence; type: in vivo, human; details: for Recurrence/Total / Recurrence/Total (%): interim analysis
Text: In the study disclosed in Examples 1 and 2, Materials & Methods, and Figures herein, the investigators assessed the ability of the combination of Herceptin® antibody (trastuzumab) and NeuVax™ vaccine (HER2 protein E75 peptide administered with the immunoadjuvant GM-CSF) given in the adjuvant setting to prevent recurrences in NP (or NN if negative for both estrogen (ER) and progesterone (PR) receptors) breast cancer patients with tumors that express low (1+) or intermediate (2+) levels of HER2. Enrolled patients were randomized to receive trastuzumab and NeuVax™ vaccine or trastuzumab with GM-CSF alone (no NeuVax™ vaccine). The safety of the combination therapy was documented, specifically to ensure that no additive cardiac toxicity results from combination HER2-directed therapy. Efficacy has been documented by comparing the DFS and immunological responses between treatment groups. The primary efficacy endpoint is to compare DFS at 24 months between treatment groups. […] A secondary endpoint of the trial is to compare DFS at 36 months. Immunologic responses to the vaccine were also documented and correlated to clinical benefit.
The study is a multi-center, prospective, randomized, single-blinded, placebo-controlled Phase II trial of Herceptin® antibody+NeuVax™ vaccine versus Herceptin® antibody+GM-CSF alone. The target study population is NP (or NN if negative for both ER and PR) breast cancer patients with HER2 1+ and 2+ expressing tumors who are disease-free after standard of care therapy. Disease-free subjects after standard of care multi-modality therapy were screened and HLA-typed. Nelipepimut-S (formerly called E75 peptide) is a CD8-eliciting peptide vaccine that is restricted to HLA-A2+ or HLA-A3+ patients (approximately two-thirds of the US population), and has been extended to HLA-A24+ and HLA-A26+ as well.
HLA-A2+/A3+/A24+/or A26+ patients who meet all other eligibility criteria were randomized to receive trastuzumab+NeuVax™ vaccine or trastuzumab+GM-CSF alone. For both groups, trastuzumab was given every three weeks as monotherapy for one year, and was given upon completion of standard of care chemotherapy/radiotherapy. The first trastuzumab infusion was given no sooner than three weeks and no later than 12 weeks after completion of chemotherapy/radiotherapy. Trastuzumab was dosed at the recommended initial loading dose of 8 mg/kg and at recommended maintenance doses of 6 mg/kg q3wk. Trastuzumab was administered as described in Section 4.3. Patients randomized to the NeuVax vaccine arm received vaccinations of nelipepimut-S peptide (1000 mcg) and GM-CSF (250 mcg) administered intradermally every three weeks for six total vaccinations, 30-120 minutes after completion of trastuzumab infusion. The NeuVax vaccine series will begin immediately after completion of the third trastuzumab infusion. In extenuating circumstances, the first vaccination may be delayed to the fourth or fifth trastuzumab infusion with prior approval from the Principal Investigator. Those patients randomized to the GM-CSF alone arm received vaccinations of GM-CSF (250 mcg) administered in an identical manner to those receiving NeuVax vaccine. Patients were blinded as to whether they are receiving NeuVax vaccine or GM-CSF alone.
Upon completion of the vaccination series, booster inoculations (same dose and route) were administered every six months×4 for total combination (trastuzumab and NPS vaccine) treatment duration of 30 months. The first booster inoculation occurred with the final trastuzumab infusion, with subsequent boosters timed every six months from the first booster. Booster inoculations occur for patients randomized to receive nelipepimut-S/GM-CSF, as well as patients randomized to receive GM-CSF alone, and consisted of the same treatment drugs and dosing (i.e., nelipepimut-S/GM-CSF patients were boosted with nelipepimut-S/GM-CSF, while GM-CSF alone patients were boosted with GM-CSF alone). […]

[3] = ITT entire study population, FIG. 5
[4] = TNBC patients (HR-negative, HER2 IHC 1+ or 2+), FIG. 7
[5] = hormone receptor-positive (HR+) patients within ITT, FIG. 6

Question: For trastuzumab [TZ], which “invasive disease-free survival, result in words” value [1] is on record?
Answer: Its value is “did not improve invasive disease-free survival”.

Question: And the Recurrence/Total ([2]; ITT TNBC)?
Answer: Its Recurrence/Total is 12/45.

Question: And the “Recurrence/Total (%)” value ([2]; ITT TNBC)?
Answer: Its value is “(26.7) %”.

Question: What about the “24-month DFS” value [2, 3] of the same substance?
Answer: Its value is 82.5%.

Question: And the “36-month DFS” value [2, 3]?
Answer: The value was 82.5%.

Question: What about the Recurrence/Total ([2]; ITT) of the same substance?
Answer: The Recurrence/Total was 19/139.

Question: And the “Recurrence/Total (%)” value ([2]; ITT)?
Answer: The value was “(13.7) %”.

Question: And the “24-month DFS” value [2, 4]?
Answer: The value was 69.9%.

Question: And the “36-month DFS” value [2, 4]?
Answer: The value was 69.9%.

Question: What about the “24-month DFS” value [2, 5] of the same substance?
Answer: The value was 89.7%.

Question: What about the “36-month DFS” value [2, 5] of the same substance?
Answer: Its value is 89.7%.
